Experimental data: patent US6572788B2, “Amine oxide wood preservatives” (Lonza, Inc., priority 2000, dated 2003)

Legend:
Test in all cases: Agar dilution plate method, wood rot fungi
Assay type in all cases: cell-based
Settings in all cases: 100% growth retardation, Table 14
[1] = system: P. placenta (brown rot fungi)
Procedure: (§1) The efficacy of the aqueous amine oxide solutions in Table 14 at various concentrations against the wood rot fungi T. versicolor (white rot fungi), G. trabeum (brown rot fungi), P. placenta (brown rot fungi), and C. globosum (soft rot decay fungi) were determined using the agar dilution plate method well known in the art. The minimum concentration of each amine oxide required to achieve 100% growth retardation of each specific organism, i.e., the minimum inhibitory concentration (MIC), was determined. The percent retardation of the fungi was determined by the percentage change in the diameter of the fungi on the agar plate (i.e. Percent Retardation=((Diameter of Control)−(Diameter of Treated Fungi))/(Diameter of Control)*100%).
(§2) The minimum concentration of the aqueous amine oxide solutions in Table 15 required to achieve 50% growth retardation of each specific organism, i.e., IC50, was estimated from the data obtained using Table2D curve fitting.

[2] = system: C. globosum (soft rot decay fungi)
Procedure: as §1, §2

[3] = system: G. trabeum (brown rot fungi)
Procedure: as §1, §2

[4] = system: T. versicolor (white rot fungi)
Procedure: as §1, §2

Measured: MIC (ppm of amine oxides)

CCCCCCCC/C=C\CCCCCCCC[N+](C)(C)[O-] [Oleyl-DMAO]
>1000 ppm: all assays above
